Source: PubChem
In the library only some 16% were active in any assay of this set; here they are far more common.
TDP1 cell noCPT: qHTS for Inhibitors of human tyrosyl-DNA phosphodiesterase 1 (TDP1): qHTS in cells in absence of CPT. Potency, µM (titrated, usually from 46.2 µM), for inactives: at the top dose activity change, negative = growth inhibition, hits mostly inhibitors. DT40 Tdp1-/- hTDP1 cells, no CPT, ATP luminescence, 48 h. 420,000 tested, 15% active. AID 686978, 2013; further: potency means the concentration at half of the fitted maximal effect; on the % scale 0 is the no-effect control and ±100 the full control effect; nearly all actives have a fitted effect of over 55% in size
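Cells were dispensed at 400 per well, compounds added by pin tool, plates incubated ≥48 hr at 37 °C, then CellTiter-Glo added for 30 min at room temperature before luminescence reading. Line: DT40 Tdp1-/- complemented with hTDP1; camptothecin omitted.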
TDP1 block: blocks human tyrosyl-DNA phosphodiesterase 1; recombinant TDP1, AlphaScreen DNA substrate cleavage; Potency, µM (series often up to 130 µM), for inactives: at the top dose activity change, negative = inhibition, hits mostly inhibitors; Q9NUW8; 350,000 tested, 0.28% active; further: potency means the concentration at half of the fitted maximal effect; on the % scale 0 is the no-effect control and ±100 the full control effect; nearly all actives have a fitted effect of over 40% in size
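Recombinant E. coli-expressed Tdp1 (1 nM) preincubated with compound 15 min at RT, then 5'-biotin/3'-phosphotyrosine-FITC DNA substrate (15 nM) added for 5 min. AlphaScreen beads (10 ug/ml) added, 10 min RT; tyrosine-FITC cleavage read as signal loss.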
uPA surface inh: blocks generation of uPA at the cell surface | cell surface uPA generation assay, qHTS | Potency, µM (series often up to 38.3 µM), inactives show at the top dose activity change, negative = inhibition, actives largely listed as inhibitors | 330,000 tested, 0.31% active | AID 540303; active means well fitted inhibition curve with a large enough effect; inconclusive means small, poorly fitted or top-dose-only effect; inactive means no such curve, though single readings can be large or run the other way; tested in mouse RAW 264.7 cells; further: potency means the concentration at half of the fitted maximal effect; on the % scale 0 is the no-effect control and ±100 the full control effect; nearly all actives have a fitted effect of over 55% in size
miR-21 reporter: miR-21 reporter, rising signal. HeLa miR-21 FLuc reporter, luciferase, 48 h. Potency, µM (highest dose often 38.3 µM), for the others: at the highest dose reporter change, positive = more light. 340,000 tested, under 10 active. AID 2288; active = well fitted rising curve with a large enough effect; inconclusive = small, poorly fitted or top-dose-only effect; inactive = no such curve, though single readings can be large or run the other way;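 further: % of control where 0% means no effect; miR-21 action dims this reporter so a rising signal means less miR-21 action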
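HeLa miR-21-FLuc reporter line, endogenous miR-21; 2000 cells/well in DMEM/10% FBS; compound titration up to ~40uM final, 48 h, 37 degree Celsius; luciferase detection reagent, 15 min lysis, CCD luminescence.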
TDP1 cell CPT: DT40-hTDP1 cell growth loss with CPT; AID 686979; chicken DT40 Tdp1-/-;hTDP1 cells + 20 nM CPT, ATP luminescence, 48 h; Potency, µM (titrated, usually from 46.2 µM), without a hit: at the top dose activity change, negative = growth inhibition, actives largely listed as inhibitors; 420,000 tested, 12% active; further: potency means the concentration at half of the fitted maximal effect; on the % scale 0 is the no-effect control and ±100 the full control effect; nearly all actives have a fitted effect of over 55% in size
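Cell growth measured by CellTiter-Glo luminescence after a minimum 48 h, 37 C compound exposure with 20 nM CPT in Tdp1-knockout DT40 cells stably expressing hTDP1, seeded 400/well; qHTS titration format.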
Starred values were filed as active, the others as inactive; ? = inconclusive; . = not tested or not shown; [ ] = remark or other dose. Unless noted, the call rests on the fitted dose curve; in most records, active means well fitted curve in the direction sought with a large enough effect; inconclusive means small, poorly fitted or top-dose-only effect, or another doubt; inactive means no such curve, though single readings can be large; an effect the other way counts as inactive or inconclusive.

SMILES | TDP1 cell noCPT | TDP1 block | uPA surface inh | miR-21 reporter | TDP1 cell CPT
COc1cccc(-c2cnc(C(O)c3cc(C)ccc3C)[nH]2)c1 (configuration not stated) | -28.3% | . | . | . | ?
Cc1ccc(C(O)c2ncc(-c3ccc(Cl)cc3)[nH]2)c(C)c1 (configuration not stated) | 16.4µM* | . | . | . | ?
COc1ccc(OC)c(S(=O)(=O)Nc2cc(Cl)cc(Cl)c2)c1 | 1.8% | -1.0%[56.1 µM] | 1.3% | -7.2% | 16.7%
Cc1c(C(=O)N(Cc2ccccc2F)C2CCS(=O)(=O)C2)oc2ccc(F)cc12 (configuration not stated) | 20.6µM* | 6.1% | . | -5.6% | 16.4µM*
Cc1c(C(=O)N(Cc2ccccc2F)C2CCS(=O)(=O)C2)oc2ccccc12 (configuration not stated) | ? | 3.7% | . | -9.1% | ?
Cc1ccc2oc(C(=O)N(Cc3ccccc3F)C3CCS(=O)(=O)C3)c(C)c2c1 (configuration not stated) | 23.1µM* | 3.7% | . | 2.8% | ?
CC(=O)c1ccc2c3c(ccc([N+](=O)[O-])c13)CC2 | -24.7% | . | . | . | 0.8%
Nc1ccc2c3c(ccc([N+](=O)[O-])c13)CC2 | 7.31µM* | . | . | . | ?
Cn1cnnc1Sc1ccc(C(=O)NCCC23CC4CC(CC(C4)C2)C3)cc1[N+](=O)[O-] | ? | 0.0% | 1.9% | -18.2% | 10.3µM*
O=C(c1cnn2c1NC(c1ccco1)CC2C(F)(F)F)N1CCN(c2cccc(Cl)c2)CC1 (configuration not stated) | 8.2µM* | 7.9% | -10.2% | 25.5% | 16.4µM*
O=C(c1cc2n(n1)C(C(F)(F)F)CC(c1ccco1)N2)N1CCc2ccccc2C1 (configuration not stated) | 18.4µM* | 4.4% | 18.4% | -3.9% | ?
COc1ccccc1N1CCN(C(=O)c2cc3n(n2)C(C(F)(F)F)CC(c2ccco2)N3)CC1 (configuration not stated) | 18.4µM* | -2.0% | -5.8% | 3.0% | 14.6µM*
CCN(Cc1ccccc1)C(=O)C1CCC(CNc2c(N3CCOCC3)c(=O)c2=O)CC1 (configuration not stated) | -24.7% | 4.9% | 8.8% | 2.5% | -26.1%
COCCCn1cc(CN(C)C2CN(Cc3cn(CCCOC)nn3)S(=O)(=O)C2)nn1 (configuration not stated) | -17.1% | . | . | . | -11.3%
COc1ccc(CNCC(O)(c2ccc(F)cc2)c2ccc(F)cc2)cc1 | 13µM* | 0.0% | -8.4% | 7.4% | ?
OC(CNCc1ccccc1)(c1ccccc1)c1ccccc1 | ? | . | 12.7% | -8.2% | -24.1%
COc1ccccc1CNCC(O)(c1ccc(F)cc1)c1ccc(F)cc1 | 13µM* | . | 14.9% | 11.5% | 18.4µM*
COc1ccc(CNCC(O)(c2ccccc2)c2ccccc2)cc1OC | 13µM* | 2.9% | -9.1% | 14.5% | -72.7%
COc1ccc(CNC(=S)NCc2ccc(F)cc2)cc1 | -11.4% | 1.7% | 13.8% | -21.8% | -9.0%
COc1ccc(CNCC(O)(c2ccccc2)c2ccccc2)cc1 | 18.4µM* | . | 2.7% | -3.4% | ?
Cc1ccc(C)c(NC(=O)CCNS(=O)(=O)c2ccc3c(c2)CCCC(=O)N3)c1 | . | 3.2% | . | -2.7% | .
S=C(NCc1ccc(Cl)cc1)N1CCN(c2ccccn2)CC1 | -18.6% | -2.5% | -1.2% | -2.3% | 3.6%
C=C1CCC2C(C)(CO)C(O)CCC2(C)C1C/C=C1\C(=O)OCC1O (configuration not stated) | 5.01µM* | 12.8%[56.1 µM] | . | . | 3.98µM*
COc1ccc(C(=O)C2CCCN(Cc3ccc4nonc4c3)C2)c(OC)c1 (configuration not stated) | ? | 5.4% | 0.4% | 1.3% | 11.6µM*
COc1ccc(C(=O)C2CCCN(Cc3cnc(N4CCOCC4)s3)C2)c(OC)c1 (configuration not stated) | 16.4µM* | -3.6% | -2.7% | 15.7% | -16.8%
Remaining list, next part
SMILES | TDP1 cell noCPT | TDP1 block | uPA surface inh | miR-21 reporter | TDP1 cell CPT
COc1ccc(C(=O)C2CCCN(Cc3cnc(N4CCOCC4)s3)C2)cc1F (configuration not stated) | -20.0% | . | -2.1% | 20.7% | 2.7%
CC(C)CN1CCN(Cc2cccn2-c2ccc(Cl)cn2)CC1CCO (configuration not stated) | ? | -8.1% | -11.7% | -2.0% | -7.0%
COc1ccc(C(=O)C2CCCN(Cc3cccn3-c3ccc(Cl)cn3)C2)c(OC)c1 (configuration not stated) | 20.6µM* | -4.8% | -9.6% | ? | 13µM*
COc1ccc(-c2oc3ncn4nc(-c5ccccc5Br)nc4c3c2-c2ccc(OC)cc2)cc1 | ? | 0.4%[12.3 µM] | . | -1.0% | 5.2%
COc1cc2c(cc1C(F)(F)F)N(C(=O)Nc1cc(F)cc(-c3cccnc3)c1)CC2 | 3.55µM* | -12.9%[56.1 µM] | . | . | 4.47µM*
Cn1ccc2cc3c(cc21)CCN3C(=O)Nc1cccnc1 | ? | 15.0% | ? | . | 7.5%
O=C1C(Oc2ccccc2)C(c2ccc3c(c2)OCO3)N1CCc1ccc(F)cc1 (configuration not stated) | ? | -2.3% | 4.6% | -9.7% | -27.1%
COc1ccc(CCN2C(=O)C(Oc3ccccc3C)C2c2ccc3c(c2)OCO3)cc1OC (configuration not stated) | 16.4µM* | -3.9% | -9.6% | 17.1% | 13µM*
COc1ccc(CCN2C(=O)C(Oc3ccccc3C)C2c2ccc3c(c2)OCO3)cc1 (configuration not stated) | 16.4µM* | 2.3% | -2.1% | -0.3% | 14.6µM*
COc1ccc(CCn2c(C)cc3c(c2=O)C(c2ccc4c(c2)OCO4)C(C#N)=C(N)O3)cc1OC (configuration not stated) | 20.6µM* | 4.4% | -3.1% | -8.2% | 13µM*
CC(=O)NCc1ccc(-c2csc(N)n2)s1 | -11.7% | 2.1% | 0.4% | -9.2% | 4.2%
CC(C)C(=O)N1CCN(c2ccc([N+](=O)[O-])c(NC(C)c3ccccc3)c2)CC1 (configuration not stated) | 16.4µM* | 7.0% | -22.6% | -7.8% | ?
CC(C)Nc1cc(N2CCCC2)ccc1[N+](=O)[O-] | -15.8% | -7.7% | 8.1% | -5.9% | ?
CC(Nc1cc(N2CCN(C(=O)C(C)(C)C)CC2)ccc1[N+](=O)[O-])c1ccccc1 (configuration not stated) | 23.1µM* | 7.9% | -6.7% | 14.1% | ?
O=[N+]([O-])c1ccc(N2CCOCC2)cc1NC(c1ccccc1)c1ccccc1 | ? | 10.7% | -1.6% | -4.9% | 16.4µM*
COc1ccc(NS(=O)(=O)c2cc(NC(=O)CCNC(=O)c3ccco3)ccc2OC)cc1 | 3.5% | 3.4% | -1.4% | . | -1.0%

Given as labelled records: 4 of the compounds above.
COc1ccc(CCN2C(=O)C(Oc3ccccc3C)C2c2ccc3c(c2)OCO3)cc1OC (configuration not stated)
  TDP1 cell noCPT = 16.4µM* | TDP1 block = -3.9% | uPA surface inh = -9.6% | miR-21 reporter = 17.1% | TDP1 cell CPT = 13µM*
COc1ccc(CCN2C(=O)C(Oc3ccccc3C)C2c2ccc3c(c2)OCO3)cc1 (configuration not stated)
  TDP1 cell noCPT = 16.4µM* | TDP1 block = 2.3% | uPA surface inh = -2.1% | miR-21 reporter = -0.3% | TDP1 cell CPT = 14.6µM*
COc1ccc(CCn2c(C)cc3c(c2=O)C(c2ccc4c(c2)OCO4)C(C#N)=C(N)O3)cc1OC (configuration not stated)
  TDP1 cell noCPT = 20.6µM* | TDP1 block = 4.4% | uPA surface inh = -3.1% | miR-21 reporter = -8.2% | TDP1 cell CPT = 13µM*
CC(=O)NCc1ccc(-c2csc(N)n2)s1
  TDP1 cell noCPT = -11.7% | TDP1 block = 2.1% | uPA surface inh = 0.4% | miR-21 reporter = -9.2% | TDP1 cell CPT = 4.2%
